# Reference: PubChem BioAssay AID1671190 (National Center for Advancing Translational Sciences (NCATS), 2021)
# Amino acid sequences for entries named in this document (tags omitted).
# UniProt P18054, whole entry: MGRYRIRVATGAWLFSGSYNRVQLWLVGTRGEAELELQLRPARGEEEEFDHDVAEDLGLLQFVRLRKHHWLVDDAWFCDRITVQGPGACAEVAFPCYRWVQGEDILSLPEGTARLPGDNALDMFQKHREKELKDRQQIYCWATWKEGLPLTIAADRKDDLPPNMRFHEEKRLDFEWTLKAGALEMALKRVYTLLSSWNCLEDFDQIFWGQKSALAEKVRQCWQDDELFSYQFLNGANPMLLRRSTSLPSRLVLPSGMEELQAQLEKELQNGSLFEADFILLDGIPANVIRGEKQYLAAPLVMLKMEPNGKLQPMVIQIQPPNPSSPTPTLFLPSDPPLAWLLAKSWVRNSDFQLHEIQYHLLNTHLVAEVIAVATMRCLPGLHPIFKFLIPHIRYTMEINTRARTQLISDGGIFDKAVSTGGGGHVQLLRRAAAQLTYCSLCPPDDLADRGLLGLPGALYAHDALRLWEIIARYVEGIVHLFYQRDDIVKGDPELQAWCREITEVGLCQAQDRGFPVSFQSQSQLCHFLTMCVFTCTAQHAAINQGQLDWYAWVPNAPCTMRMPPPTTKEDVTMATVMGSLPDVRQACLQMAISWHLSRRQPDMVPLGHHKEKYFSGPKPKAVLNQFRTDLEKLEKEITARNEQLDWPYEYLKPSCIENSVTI
# This is a selection; strong and weak results do not stand in their true shares. Inconclusive results are not listed. Calls of active or inactive are those of the source. Calls follow the shape of the dose curve; as a rule, active = well fitted inhibition curve with a large enough effect; inconclusive = small, poorly fitted or top-dose-only effect, or another doubt; inactive = no such curve, though single readings can be large or run the other way.
# Target: Polyunsaturated fatty acid lipoxygenase ALOX12 (Homo sapiens) (UniProt P18054)
# Assay: Primary qHTS assay for inhibitors of human arachidonate 12S-lipoxygenase (ALOX12): Round 2
# Conditions: purified 12hLO, xylenol orange hydroperoxide absorbance; series mostly up to 108 µM; activity change, negative = inhibition: at the top concentration
# Excerpt: Assay Provider: Theodore R. Holman Ph.D. University of California, Santa Cruz, California Human lipoxygenase 12hLO is a member of the closely related lipoxygenase family of enzymes which catalyze the site-specific oxidation of arachidonic acid to various hormone precursor molecules and as such is a candidate for drug development in a variety of disease areas, such as cancer and inflammation. Inhibition of 12hLO activity was screened by utilizing arachidonic acid as a substrate. The extent of hydroperoxide product formation was measured by a secondary chromogenic reaction in which xylenol orange (XO, Sigma-Aldrich, cat. number 39,818-7) reacts with the ferric ions produced from the reaction between the hydroperoxide and ferrous ions. The Fe (III)-XO complex is characterized with red-shifted absorbance at 560 nm. A purified preparation of human 12hLO was supplied by Dr. Holman laboratory, University of California, Santa Cruz.
# PROTOCOL TABLE SEQUENCE No. (e.g., 1, 2, 3, etc.); […] (e.g., Cells, Incubation, Reagent, etc.); VALUE; DESCRIPTION 1; Enzyme; 3 uL; 150 nM 12hLO enzyme solution dispensed in 1536-well Greiner black, clear bottom plates. 2; Compound; 23 nL; compounds and controls were added. 3; Incubate; 15 min; room temperature. 4; Substrate; 1 uL; 40 uM arachidonic acid (final concentration). 5; Incubate; 30 min; room temperature. 6; Reagent; 4 uL; Fe-XO solution was added to each well. 7; Incubation; 30 min; room temperature 8; Detector; absorbance; Read 1 at 405 nm absorbance using ViewLux (Perkin-Elmer) CCD imager. 9; Detector; absorbance; Read 2 at 573 nm absorbance using ViewLux (Perkin-Elmer) CCD imager. NOTES (numbers refer to sequence above) 1; 150 nM 12hLO (final concentration) in buffer solution (25 mM Hepes, 0.01% Triton X-100, pH 7.0) was dispensed in columns 1, 2, 5-48. Column 1 is neutral (100% activity). Buffer only was dispensed in columns 3 and 4 as no enzyme negative controls. The plates were covered with metal lids with gas-exchange holes. 2; Compounds were pin transferred via a Kalypsys Pin Tool (Wako USA) in column 5-48. Control compound was transferred in column 2, titration of nordihydroguaiaretic acid (NDGA, Sigma-Aldrich, N5023) with top concentration of 20 mM in DMSO then 1:3 dilution in duplicate. Dilution factor of 23 nL into 4 uL final assay volume. 3; Covered assay plates were incubated for 15 min at room temperature. 4; Substrate was added to start the reaction; 40 uM arachidonic acid (Sigma-Aldrich, St. Louis, MO) was dispensed throughout the plate. 6; Chromogenic detection reagent solution (divalent iron/xylenol orange, Fe-XO) was added to each well: 200 uM xylenol orange, 300 uM ferrous ammonium sulfate prepared freshly in 50 mM sulfuric acid. 8, 9; Two absorbance readouts were obtained at 405 nm and at 573 nm using a ViewLux high-throughput CCD plate imager (Perkin-Elmer). The 573 to 405 (Read 2 / Read 1) absorbance ratio was used to compute reaction progress.
# % is scaled to controls: 0 for no effect and ±100 for the full control effect.
row,SMILES,"activity change, negative = inhibition"
1,O=[N+]([O-])c1cc([N+](=O)[O-])c(C(F)(F)F)c([N+](=O)[O-])c1O,inactive: -23.1%
2,Cc1ccccc1NP(C)(=O)Nc1ccccc1C,inactive: 0%
3,CP(=O)(Nc1ccc2c(c1)OCCO2)Oc1ccccc1 (configuration not stated),inactive: 0%
4,COc1ccc(NP(C)(=O)Oc2ccccc2OC)cc1 (configuration not stated),inactive: -2.03%
5,CN(C)CCOC(=O)C(O)(c1ccccc1)C1CCCCC1 (configuration not stated),inactive: 6.65%
6,COc1ccc(OP(C)(=O)Nc2cccc(Br)c2)cc1 (configuration not stated),inactive: 0%
7,Cc1c(C(c2ccc3c(c2)OCO3)c2c(C)n(C)n(-c3ccccc3)c2=O)c(=O)n(-c2ccccc2)n1C.O=[N+]([O-])c1cc([N+](=O)[O-])c(O)c([N+](=O)[O-])c1,inactive: -0.782%
8,O=[N+]([O-])c1ccc(OP2(=O)COCCO2)cc1 (configuration not stated),inactive: -9.04%
9,COc1ccc(OP(C)(=O)Nc2ccc(SC(F)(F)F)cc2)cc1 (configuration not stated),inactive: -37.7%
10,CCOC(=O)c1ccc(NP(C)(=O)Oc2ccc(F)cc2)cc1 (configuration not stated),inactive: 4.4%
11,Cc1cccc([N+](=O)[O-])c1[N+](=O)[O-],inactive: -4.92% [at 22.9 µM]
12,CP(=O)(Nc1ccccc1)Oc1ccc(F)cc1 (configuration not stated),inactive: 10.5%
13,CCOP(=O)(CC)Oc1ccc([N+](=O)[O-])cc1 (configuration not stated),inactive: -6.43% [at 22.9 µM]
14,CN(C)CCOC(=O)C(O)(c1ccccc1)C1CCCC1 (configuration not stated),inactive: 10.4%
15,COc1ccc(OP(C)(=O)Nc2ccccn2)cc1 (configuration not stated),inactive: 4.68%
16,COc1ccccc1OP(C)(=O)Nc1ccc(Br)cc1 (configuration not stated),inactive: -11.8%
17,CCc1ccc(OP(C)(=O)O)cc1,inactive: 12.9%
18,CP(=O)(Nc1ccccn1)Oc1ccccc1 (configuration not stated),inactive: -15.1%
19,COc1ccccc1OP(C)(=O)Nc1ccc(C)cc1C (configuration not stated),inactive: -4.2%

row,SMILES,"activity change, negative = inhibition"
1,Cc1c(NP(C)(=O)Oc2ccc(C(C)C)cc2)c(=O)n(-c2ccccc2)n1C (configuration not stated),inactive: 0.884%
2,O=[N+]([O-])c1cc([N+](=O)[O-])c(Nc2ccccn2)c([N+](=O)[O-])c1,inactive: -14.7%
3,COc1ccc(OP(C)(=O)Nc2ccccc2Br)cc1 (configuration not stated),inactive: 7.18%
4,COc1ccccc1OP(C)(=O)Nc1ccc(C)c(C)c1 (configuration not stated),inactive: 573%
5,Cc1cc(C)cc(OP(C)(=O)Nc2cccc(C(F)(F)F)c2)c1 (configuration not stated),inactive: 0.105%
6,CP(=O)(Nc1ccc(Cl)cc1Cl)Oc1ccccc1 (configuration not stated),inactive: -29.7%
7,CP(=O)(OCCOc1ccccc1)OCCOc1ccccc1,inactive: 11.3%
8,CP(=O)(OC12CC3CC(CC(C3)C1)C2)OC12CC3CC(CC(C3)C1)C2,inactive: -1.78%
9,CCOC(=O)c1ccc(NP(C)(=O)Oc2ccc(Cl)cc2)cc1 (configuration not stated),inactive: -19.8%
10,Nc1ccc2c(ccc3cccnc32)n1.O=[N+]([O-])c1cc([N+](=O)[O-])c(O)c([N+](=O)[O-])c1,inactive: -6.79%
11,CP(=O)(Oc1ccccc1)N1CCOC1=O (configuration not stated),inactive: 13.4%
12,CCc1ccc(OP(C)(=O)Nc2cccnc2)cc1 (configuration not stated),inactive: 12.6%
13,COc1ccccc1OP(C)(=O)Nc1c(C)n(C)n(-c2ccccc2)c1=O (configuration not stated),inactive: 0%
14,O=C(OCCCN1CCCC1)C(O)(c1ccccc1)C1CCCCC1 (configuration not stated),inactive: 104%
15,COc1ccc(OP(C)(=O)Nc2ccc(Br)cc2)cc1 (configuration not stated),inactive: -2.4%
16,CN(C)C(=O)c1c([N+](=O)[O-])cc([N+](=O)[O-])cc1[N+](=O)[O-],inactive: -10.8%
17,CP(=O)(Nc1ccc(Cl)cc1)Oc1ccc(F)cc1 (configuration not stated),inactive: 17.1%
18,COc1ccccc1OP(C)(=O)Nc1ccccc1Br (configuration not stated),inactive: 24.9%
